# Yeast mating assay 2: variants of the scFv Ab-95

Data: MIT Lincoln Laboratory AlphaSeq set, Engelhart et al. 2022, doi:10.1038/s41597-022-01779-4, as distributed in FLAb.

Antigen: PDVDLGDISGINAS, a 14-residue peptide of the SARS-CoV-2 spike HR2 region.

Ab-95 is the parent antibody, in scFv form: VH, then a 15-residue (Gly4Ser)3 linker, then VL. The heavy chain is unchanged in all variants.
VH: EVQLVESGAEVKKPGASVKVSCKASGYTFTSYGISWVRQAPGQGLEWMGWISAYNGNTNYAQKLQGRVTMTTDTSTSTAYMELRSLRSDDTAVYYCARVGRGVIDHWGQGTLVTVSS
VL: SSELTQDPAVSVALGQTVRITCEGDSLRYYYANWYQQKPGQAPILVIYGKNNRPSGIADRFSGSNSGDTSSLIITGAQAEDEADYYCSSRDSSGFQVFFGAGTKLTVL

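Variants in AAYL52 differ from the parent at up to three CDR positions; double and triple changes were sampled at random. Affinity was read by AlphaSeq, a pooled yeast mating assay with surface-displayed partners. The frequency of each diploid, read from paired DNA barcodes, reflects how well the two displayed proteins bind. Each replicate has its own calibration line, from reference interactions of the BCL2 family. Mating was done three times.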

Changes read parent residue, position, new residue, counted from the first residue of the VL shown. Affinities are written as log10 Kd with Kd in nM; a lower number is a better binder. The mean shown is taken over the replicates in which the pair was detected. Where no diploid with the target was found in that replicate, the entry reads "nd": below detection, most likely a poor binder, though not proof of it. As a blank, each scFv also met three strains without target: over library AAYL52, 28% of these pairings were detected, typically at 3.91 and seldom below 2.90. Also given: how often the same scFv was detected with the empty control strains, with their mean in brackets. Parent in this assay: reference entry 2.31, copy in this library 2.25.

changes | log10 Kd (nM) by replicate | mean log10 Kd (nM) | control signals
A32D S92Q S93H | 1.78 1.79 1.55 | 1.71 | 4 of 9 (3.94)
G24E Y31V N52E | nd nd nd | nd | 2 of 9 (4.34)
L27Q N52S Q96M | nd 3.08 4.52 | 3.80 | 6 of 9 (4.14)
L27F K50I S89T | nd 5.86 nd | 5.86 | 6 of 9 (4.32)
R28C Y31H G49H | 3.12 3.91 4.54 | 3.86 | 3 of 9 (3.88)
L27F R28F V97R | 3.33 3.06 4.69 | 3.69 | 5 of 9 (3.84)
S92R Q96F | 2.42 2.17 2.15 | 2.25 | 3 of 9 (3.52)
R28H N52Y | 2.60 2.32 2.46 | 2.46 | 4 of 9 (4.67)
E23H N51F S88M | 3.91 nd 3.19 | 3.55 | 2 of 9 (3.77)
Y29R N51E F98I | nd 5.35 2.45 | 3.90 | 2 of 9 (3.49)
E23I G49F F95I | 4.34 nd 4.44 | 4.39 | 3 of 9 (3.63)
S55P R90Y S92N | nd nd 3.48 | 3.48 | 1 of 9 (3.70)
A32L R53V F95Q | nd 3.60 3.04 | 3.32 | 2 of 9 (4.20)
Y30K A32H G94T | 4.42 nd nd | 4.42 | 2 of 9 (4.26)
D25I Y29V F95E | 3.36 nd nd | 3.36 | 0 of 9
L27I N52D S93G | 3.65 3.76 3.26 | 3.56 | 2 of 9 (4.61)
G24M N33E S89Y | 3.73 5.57 nd | 4.65 | 1 of 9 (4.44)
S26N N33A D91Q | nd nd nd | nd | 3 of 9 (4.19)
E23K R90L F98E | nd 3.73 nd | 3.73 | 3 of 9 (5.01)
S55F V97Y F98A | 2.29 2.16 1.95 | 2.13 | 1 of 9 (4.12)
D25S G49Y R53L | nd 3.14 3.55 | 3.35 | 1 of 9 (3.84)
D25G R53S D91I | 3.64 2.96 4.28 | 3.63 | 3 of 9 (3.97)
E23K N33M | nd 5.09 3.62 | 4.35 | 2 of 9 (3.81)
Y31H K50Y S92C | 3.46 3.14 3.59 | 3.40 | 3 of 9 (4.25)
A32F G49Y | nd nd nd | nd | 1 of 9 (3.98)
R90M S92R | 5.23 nd 4.40 | 4.81 | 5 of 9 (3.17)
L27D F95M F98M | 3.83 3.68 nd | 3.75 | 4 of 9 (4.01)
S26E Y30S S93T | 1.27 1.44 0.88 | 1.20 | 4 of 9 (3.99)
S26G G49Q K50A | 4.68 3.95 3.01 | 3.88 | 4 of 9 (4.62)
E23S | 1.71 1.68 1.21 | 1.53 | 5 of 9 (3.73)
G24S Y29V S55L | 5.31 5.63 nd | 5.47 | 1 of 9 (3.74)
G49L N52V S93V | nd 3.20 nd | 3.20 | 5 of 9 (3.40)
E23T R28G F98E | 2.32 2.19 2.32 | 2.28 | 1 of 9 (2.84)
K50C R53N G94C | nd 5.21 4.06 | 4.64 | 0 of 9
G24N S88V | 3.01 4.69 nd | 3.85 | 5 of 9 (3.70)
S26Y G49R S88G | nd 4.00 4.37 | 4.19 | 1 of 9 (4.32)
E23W S26L Y31L | 3.40 nd 2.91 | 3.15 | 2 of 9 (3.57)
S26E N51D P54W | nd 4.07 nd | 4.07 | 1 of 9 (3.43)
A32E N51W | 3.98 3.25 nd | 3.61 | 3 of 9 (3.52)
E23F N33F V97G | 4.09 3.07 3.07 | 3.41 | 4 of 9 (4.32)
S26H P54H Q96R | 4.16 4.92 3.67 | 4.25 | 2 of 9 (3.80)
G94A F95S Q96I | 3.20 2.59 2.44 | 2.74 | 4 of 9 (3.94)
G49N R53C V97Y | nd 4.08 nd | 4.08 | 0 of 9
N52G S88Y | 3.69 nd nd | 3.69 | 0 of 9
N33E P54D | nd nd nd | nd | 0 of 9
S26P N33A Q96L | 4.12 3.55 3.58 | 3.75 | 4 of 9 (4.10)
E23G S55G Q96D | 2.52 2.21 1.81 | 2.18 | 3 of 9 (3.99)
L27P N33M N52T | 3.78 4.81 2.83 | 3.81 | 4 of 9 (3.70)

Repeated from above, the 6 best binders with a signal in all replicates:

| changes | log10 Kd (nM) by replicate | mean log10 Kd (nM) | control signals |
|---|---|---|---|
| S26E Y30S S93T | 1.27 1.44 0.88 | 1.20 | 4 of 9 (3.99) |
| E23S | 1.71 1.68 1.21 | 1.53 | 5 of 9 (3.73) |
| A32D S92Q S93H | 1.78 1.79 1.55 | 1.71 | 4 of 9 (3.94) |
| S55F V97Y F98A | 2.29 2.16 1.95 | 2.13 | 1 of 9 (4.12) |
| E23G S55G Q96D | 2.52 2.21 1.81 | 2.18 | 3 of 9 (3.99) |
| S92R Q96F | 2.42 2.17 2.15 | 2.25 | 3 of 9 (3.52) |